According to patent US20250255976A1, “CATIONIC BIOMATERIALS AMELIORATE OBESITY-ASSOCIATED CHRONIC INFLAMMATION AND FOCAL ADIPOSITY” (THE TRUSTEES OF COLUMBIA UNIVERSITY IN THE CITY OF NEW YORK, priority 2022, published 2025):
“Also recorded” adds a separate entry of the source.

Columns and labels:
3T3-L1 adipocytes = experiment: Gene expression in 3T3-L1 adipocytes on Day 6 of differentiation; type: cell-based; settings: HSA 100 μg/mL, PBS vehicle control
Protocol: Stable TLR3-, 4-, 8-, and 9-overexpressing HEK-Blue and TLR3 knockout (KO) HEK-Dual Null cells (Invivogen) were propagated in high-glucose Dulbecco's modified Eagle's medium (DMEM) with 10% (v/v) fetal bovine serum (FBS, Corning) and maintained in growth medium supplemented with selective antibiotics following the manufacturer's instructions. RAW264.7 cells (ATCC) were cultured in high-glucose DMEM with 10% (v/v) FBS and then were subcultured by detachment with a cell scraper. C3H10T1/2 cells (ATCC) were cultured in high-glucose DMEM with 10% (v/v) FBS and 1× penicillin/streptomycin (Thermo Fisher). 3T3-L1 cells (ATCC) were cultivated in high-glucose DMEM with 10% (v/v) calf serum and 1× penicillin/streptomycin to maintain the undifferentiated status. […]
Tissues or cells were lysed into TRIzol™ reagent (Thermo Fisher Scientific), followed by the addition of chloroform for phase separation, and then were purified using a Tri-Isolate RNA Pure Kit (IBI Scientific). […] A Bio-Rad CFX96 Real-Time PCR system was used to perform quantitative real-time PCR (Q-PCR) with GoTaq qPCR Master Mix (Promega). The relative gene expression was calculated by using the ΔΔCt method, and Rpl23 was used as a reference gene.

iWAT of DIO mice = experiment: Local treatment of subcutaneous inguinal fat (iWAT) of DIO mice; type: in vivo, male C57BL/6 mice; settings: HSA alone, weekly
Protocol: For HSA-PG3 local treatment of subcutaneous fat, 26-week-old male mice were treated with HSA-PG3 or HSA once weekly by subcutaneous injection into the inguinal fat while on HFD feeding. For each injection, 50 g of HSA-PG3 (10:1 ratio) or 500 g HSA (equivalent to 50 g of HSA-PG3) was diluted in 300 μL of PBS solution and injected into three spots on one side of the inguinal fat. The vehicle control (PBS solution) was administered to the other side of the subcutaneous fat. Mice were sacrificed at five weeks post-injection.
Tissues or cells were lysed into TRIzol™ reagent (Thermo Fisher Scientific), followed by the addition of chloroform for phase separation, and then were purified using a Tri-Isolate RNA Pure Kit (IBI Scientific). 1 μg of RNA was used to synthesize cDNA with a High-Capacity cDNA Reverse Transcription kit from Applied Biosystems. A Bio-Rad CFX96 Real-Time PCR system was used to perform quantitative real-time PCR (Q-PCR) with GoTaq qPCR Master Mix (Promega). The relative gene expression was calculated by using the ΔΔCt method, and Rpl23 was used as a reference gene.
After dissection, tissues were immediately fixed in a 10% formalin buffered solution. Two days after fixation, tissues were embedded in paraffin, sectioned, stained with hematoxylin and eosin (H & E), and photographed under a microscope (Olympus IX71). The images were processed using ImageJ software. Frozen eWAT sections were used for the immunohistochemical staining. eWAT sections were incubated with Caveolin-1 (D46G3) (CST, #3267) at a 1:250 dilution overnight, and then anti-rabbit Alexa 488 antibody (Thermo Fisher Scientific, #A27034) was used at a 1:1000 dilution.
The data are presented as the mean±SEM. The significance between groups was evaluated using ANOVA for multiple comparisons or t-test for comparisons between two groups. A paired t-test was used to assess the significance between the subcutaneous fat on the HSA-PG3 treatment side and that on the nontreated side. The significance level was set to a p value<0.05.

human serum albumin [HSA]
effect on adipocyte gene expression (3T3-L1 adipocytes): blunted effect
iWAT depot size / mass (iWAT of DIO mice; 500 g per injection as printed): did not reduce; also recorded: no effect
iWAT Pparg1, Pparg2 and Fabp4 expression (iWAT of DIO mice): downregulate
iWAT lipid synthetic genes (iWAT of DIO mice): nor repress most lipid synthetic genes
